ChEMBL document CHEMBL4041499, “Synthesis and evaluation of 7-substituted coumarin derivatives as multimodal monoamine oxidase-B and cholinesterase inhibitors for the treatment of Alzheimer's disease” (Eur J Med Chem, 2017)

Amino acid sequences for entries named in this document (tags omitted).
UniProt P27338, whole entry: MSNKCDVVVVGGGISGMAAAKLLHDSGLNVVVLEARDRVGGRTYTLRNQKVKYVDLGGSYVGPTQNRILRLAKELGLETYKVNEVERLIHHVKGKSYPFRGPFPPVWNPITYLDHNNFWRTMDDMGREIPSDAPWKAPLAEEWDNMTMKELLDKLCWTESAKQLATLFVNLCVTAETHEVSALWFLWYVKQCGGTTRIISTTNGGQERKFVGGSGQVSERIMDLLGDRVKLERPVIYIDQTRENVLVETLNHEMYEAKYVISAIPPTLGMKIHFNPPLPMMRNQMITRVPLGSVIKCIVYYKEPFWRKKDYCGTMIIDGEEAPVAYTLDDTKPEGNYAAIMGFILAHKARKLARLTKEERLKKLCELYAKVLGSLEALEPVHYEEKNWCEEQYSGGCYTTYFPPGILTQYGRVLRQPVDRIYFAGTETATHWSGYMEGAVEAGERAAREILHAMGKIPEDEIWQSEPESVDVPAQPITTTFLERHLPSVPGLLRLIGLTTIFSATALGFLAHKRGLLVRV

Target: Amine oxidase [flavin-containing] B (Homo sapiens, UniProt P27338)

| SMILES | IC50 [nM] |
| --- | --- |
| O=c1ccc2ccc(OCCN3CCC(Cc4ccccc4)CC3)cc2o1 | 470 |
| Cc1cc(=O)oc2cc(OCCN3CCCCC3)ccc12 | 3090 |
| Cc1cc(=O)oc2cc(OCc3ccc(Br)cc3)ccc12 | 0.9 |
| Cc1cc(=O)oc2cc(OCCN3CCC(Cc4ccccc4)CC3)ccc12 | 530 |
